## Binding of CDR-mutated scFvs to a peptide of the spike HR2 region

Target peptide (SARS-CoV-2 spike, HR2 region): PDVDLGDISGINAS

Parent: Ab-14, a human scFv built as VH, three GGGGS repeats, VL. Only the CDRs of the light chain vary.
VH: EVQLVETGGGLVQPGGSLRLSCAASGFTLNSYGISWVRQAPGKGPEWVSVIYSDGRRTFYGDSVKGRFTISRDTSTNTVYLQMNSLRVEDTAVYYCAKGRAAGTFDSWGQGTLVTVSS
VL: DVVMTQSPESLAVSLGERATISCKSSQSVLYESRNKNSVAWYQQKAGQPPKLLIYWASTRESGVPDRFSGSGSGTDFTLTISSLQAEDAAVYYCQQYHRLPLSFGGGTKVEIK

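The starting antibody came from a phage panning campaign against this peptide. Designed CDR sequences, proposed from the first random library and measured here. Their group label is 14L_GP_HC (GP: Gaussian process model; HC: hill climbing; a sequence that several methods proposed may carry one label only). In AlphaSeq, yeast of one mating type display the scFv and yeast of the other type display the target. Pairs that bind mate more often; barcode pairs of the diploids are counted by sequencing. Read counts were normalised to the haploid input and turned into Kd by a linear fit to BCL2-family pairs of known affinity, for each replicate. There are six technical replicates.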

Positions count from residue 1 of the parent VL; K24H puts H in place of K. Values are log10 of the apparent Kd in nM; lower means stronger binding. An entry "ND" has no value in the source: the pair was not observed among the diploids in that replicate. This suggests poor binding but is not conclusive. A sequence measured in both rounds can read differently, since the two assays cover different ranges. The authors averaged sequences with at least three values out of six and counted those with two or fewer as poor binders. Nonspecific signal, from three strains lacking the peptide, appeared in 4% of pairings of all light chain designs, centred on 2.64 (5% of these signals below 1.59); values are not corrected for it. Also given: how often the same scFv was detected with the empty control strains, with their mean in brackets.

changes,"replicates, log10 nM",control signals
K24H S25Q Q27D Y31Q W56D,1.85 / 2.29 / 1.53 / 1.86 / 2.14 / 0.51,0/18
S26Q W56H S62D H98A,0.46 / 0.07 / 0.33 / -0.12 / 0.10 / 0.36,1/18 (3.26)
S25Q V29W Y31C W56D,-0.13 / -0.16 / -0.38 / -0.32 / -0.36 / -0.23,2/18 (2.44)
Q27I V29H K36E W56E S62Q,-0.20 / -0.35 / -0.33 / -0.48 / -0.40 / -0.17,0/18
V29F W56G Y97G P101T,0.23 / 0.25 / 0.38 / 0.30 / -0.21 / 0.12,0/18
K24H S25L Q27M S28V W56N,0.17 / 0.02 / 0.11 / -0.08 / 0.18 / 0.14,0/18
Q27I V29Y R34L W56E,1.17 / 1.13 / 0.98 / 0.69 / 1.24 / 0.96,0/18
K24N V29W W56N A57G S58N,-0.30 / -0.51 / -0.51 / -0.80 / -0.18 / -0.47,0/18
Q27I V29Y E32P N35M W56E,0.28 / 0.26 / 0.45 / 0.10 / 0.31 / 0.29,0/18
Q27I V29Y L30E R34M W56E,0.62 / 0.37 / 0.46 / -0.09 / 0.32 / 0.21,0/18
S25L S26D V29T W56N E61L,-0.07 / -0.33 / -0.25 / -0.40 / -0.33 / -0.22,0/18
S25I S26E S28G W56G T59V,-0.01 / -0.35 / -0.28 / -0.28 / -0.21 / -0.26,0/18
S25L V29F S38A W56G P101T,-0.13 / -0.17 / -0.21 / -0.15 / -0.03 / -0.15,0/18
S25V S33Q R34G N35T W56N T59S,1.63 / 1.51 / ND / 2.35 / 1.22 / 1.79,0/18
Q27I V29G N35V W56E,0.42 / 0.37 / 0.29 / 0.27 / 0.40 / 0.72,0/18
S25L S26R V29T K36Q W56Y,0.37 / 0.21 / -0.16 / -0.09 / 0.10 / 0.34,1/18 (3.35)
Q27I V29Y K36P W56E,0.13 / -0.05 / -0.21 / -0.26 / -0.15 / -0.01,0/18
V29W L30G W56D,-0.27 / -0.21 / -0.27 / -0.38 / -0.70 / -0.31,0/18
S25F S33G W56N,0.34 / 0.22 / 0.12 / 0.15 / 0.13 / 0.19,3/18 (3.18)
S25F V29W W56G T59L,0.29 / -0.22 / -0.45 / 0.39 / -0.08 / 0.18,0/18
S25Q W56D E61M,0.33 / 0.16 / -0.12 / -0.28 / -0.08 / -0.12,0/18
S25Q S28A V29F Y31G W56D S58N,0.23 / 0.09 / -0.02 / 0.00 / -0.17 / 0.38,0/18
S26L V29Q L30E W56E S62D,0.17 / -0.09 / -0.01 / -0.10 / 0.01 / 0.25,1/18 (3.25)
S25Q R34V W56D E61C,-0.19 / -0.24 / -0.37 / -0.32 / -0.29 / -0.08,0/18
Q27G V29W W56G T59L,-0.24 / -0.22 / -0.30 / -0.52 / -0.41 / -0.23,1/18 (4.93)
S25L N35T W56N Q96W,1.31 / 0.85 / 0.74 / 0.61 / 0.95 / 1.20,3/18 (2.92)
Q27I V29Y R34M W56E A57G T59Y,0.24 / 0.67 / 0.18 / 0.07 / 0.35 / 0.39,1/18 (1.71)
S25L S26L W56H S62D L102M,0.34 / 0.39 / 0.12 / 0.04 / 0.11 / 0.26,1/18 (2.20)
S25V S26L S38N W56H S62D H98A,-0.29 / -0.24 / -0.32 / -0.48 / -0.46 / -0.24,0/18
S25L S26E V29T K36Q S62E,0.92 / 0.87 / 0.60 / 0.36 / 0.38 / 0.88,1/18 (2.20)
L30T Y31F W56D,-0.04 / 0.13 / -0.02 / -0.01 / 0.00 / 0.15,3/18 (2.34)
S25I V29Y L30H W56G,0.11 / 0.35 / -0.20 / -0.02 / 0.09 / 0.08,0/18
S26Q Q27W R34N W56H S62D,0.46 / 0.63 / 0.41 / 0.63 / 0.54 / 0.41,0/18
S25F N35T K36S S38G W56N,0.15 / 0.00 / 0.11 / 0.12 / 0.08 / 0.27,0/18
V29W W56G S103I,0.66 / 0.22 / 0.32 / 0.45 / 0.07 / -0.02,0/18
Q27I V29Y R34P W56E,0.15 / 0.03 / 0.00 / -0.12 / 0.19 / 0.09,1/18 (2.57)
S26L V29E N35D W56H S62D,0.50 / 1.03 / 0.63 / 0.98 / 0.17 / 0.45,0/18
S25I Y31M S33W W56D,0.67 / 0.32 / 0.37 / 0.50 / 0.18 / 0.56,0/18
Q27W V29Y K36T W56E,0.44 / 0.54 / -0.05 / 0.12 / 0.13 / 0.19,0/18
S25L S26P W56D S62D Q96S,-0.27 / -0.31 / -0.10 / -0.36 / -0.35 / -0.25,2/18 (2.99)
S25L S26P V29T K36P,0.32 / 0.25 / 0.11 / 0.21 / 0.08 / 0.29,1/18 (3.69)
S26L V29W W56N S62Q,1.81 / 2.48 / 2.16 / 2.61 / 2.26 / 3.28,1/18 (3.35)
Q27I V29D Y31G W56E,0.16 / 0.02 / -0.11 / -0.12 / -0.08 / 0.07,1/18 (3.98)

The 6 strongest on average among those seen in every replicate, once more:

{"changes": "K24N V29W W56N A57G S58N", "replicates, log10 nM": "-0.30 / -0.51 / -0.51 / -0.80 / -0.18 / -0.47", "control signals": "0/18"}
{"changes": "V29W L30G W56D", "replicates, log10 nM": "-0.27 / -0.21 / -0.27 / -0.38 / -0.70 / -0.31", "control signals": "0/18"}
{"changes": "S25V S26L S38N W56H S62D H98A", "replicates, log10 nM": "-0.29 / -0.24 / -0.32 / -0.48 / -0.46 / -0.24", "control signals": "0/18"}
{"changes": "Q27I V29H K36E W56E S62Q", "replicates, log10 nM": "-0.20 / -0.35 / -0.33 / -0.48 / -0.40 / -0.17", "control signals": "0/18"}
{"changes": "Q27G V29W W56G T59L", "replicates, log10 nM": "-0.24 / -0.22 / -0.30 / -0.52 / -0.41 / -0.23", "control signals": "1/18 (4.93)"}
{"changes": "S25L S26P W56D S62D Q96S", "replicates, log10 nM": "-0.27 / -0.31 / -0.10 / -0.36 / -0.35 / -0.25", "control signals": "2/18 (2.99)"}

Source: Li et al. 2023 (doi:10.1038/s41467-023-39022-2), MIT Lincoln Laboratory and A-Alpha Bio; data file from the FLAb repository.